Measured values published in paper PMC5654968 (NPJ Systems Biology and Applications, 2017).

Assay: Plasma PK of major maoto compounds by LC-MS/MS after oral administration of maoto
Type: in vivo
Conditions: rat plasma
Method: 1 (7:00-19:00). Rats were maintained and used for the experiments in accordance
2 with the Guidelines for the Care and Use of Laboratory Animals of Tsumura &
3 CO. All experimental procedures were carried out upon approval from the
4 Laboratory Animal Committee of Tsumura & CO.
8 administered to 16-h fasted rats (n=3). […]
14 and 4 g/10mL/kg) were determined by LC-MS/MS. Based on a literature search,
16 amygdalin, prunasin, scopoletin, l-ephedrine, d-pseudoephedrine,
1 Plasma PK data were analyzed by noncompartmental modeling using
2 Phoenix WinNonlin (version 6.3, Certara L.P., St. Louis, MO, USA) to determine
3 various PK constants including Cmax, tmax, t1/2, and AUC0–last. The t1/2 was divided
4 by loge2/ke, where ke is the rate constant of terminal elimination (at least three
5 data points on the descending linear limb). […]

Substance | AUClast (oral maoto 1 g/kg) | Cmax (oral maoto 1 g/kg) | Tmax (oral maoto 1 g/kg) | AUClast (oral maoto 2 g/kg) | Cmax (oral maoto 2 g/kg) | Tmax (oral maoto 2 g/kg) | AUClast (oral maoto 4 g/kg) | Cmax (oral maoto 4 g/kg) | Tmax (oral maoto 4 g/kg) | t1/2 (oral maoto 4 g/kg) | t1/2 (oral maoto 1 g/kg) | t1/2 (oral maoto 2 g/kg)
Isoliquiritin apioside | 0.113 ng·h/mL | 0.355 ng/mL | 0.250 h | 3.16 ng·h/mL | 1.49 ng/mL | 1.00 h | 8.10 ng·h/mL | 9.08 ng/mL | 0.250 h | 0.891 h | – | –
Liquiritin apioside | 12.9 ng·h/mL | 3.07 ng/mL | 2.00 h | 31.7 ng·h/mL | 7.24 ng/mL | 1.00 h | 130 ng·h/mL | 169 ng/mL | – | 3.85 h | 3.96 h | 2.62 h
